Measurements: paper PMC6669903 (Neuron, 2019)

Chains of the proteins cited; added tags and fusions are not shown. Residues count along the entry.
UniProt Q9UQM7, 6-274 D135N: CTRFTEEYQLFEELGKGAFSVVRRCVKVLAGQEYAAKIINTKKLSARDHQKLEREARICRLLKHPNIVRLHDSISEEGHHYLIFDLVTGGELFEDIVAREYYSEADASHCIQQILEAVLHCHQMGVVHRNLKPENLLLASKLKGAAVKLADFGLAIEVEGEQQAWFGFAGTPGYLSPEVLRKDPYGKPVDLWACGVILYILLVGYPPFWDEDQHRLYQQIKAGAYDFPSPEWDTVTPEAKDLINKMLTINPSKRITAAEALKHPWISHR

Molecular target: purified kinase domain of CaMKIIα (residues 6–274 with a kinase null D135N mutation) (Homo sapiens, UniProt Q9UQM7, D135N)
Test: fluorescence polarization assay of Tiam1 peptide binding to CaMKII kinase domain

Kd: 8.1 ± 1.7 µM
Structure (SMILES): CSCC[C@H](NC(=O)[C@H](CCCNC(=N)N)NC(=O)[C@H](CO)NC(=O)[C@H](C)NC(=O)[C@H](Cc1c[nH]cn1)NC(=O)[C@H](CO)NC(=O)[C@H](CC(=O)O)NC(=O)[C@H](CC(C)C)NC(=O)[C@@H](NC(=O)[C@H](CCCNC(=N)N)NC(=O)c1ccc2c(c1)C(=O)OC21c2ccc(O)cc2Oc2cc(O)ccc21)[C@@H](C)O)C(=O)N[C@H](C(=O)N[C@@H](CCC(N)=O)C(=O)N[C@@H](CC(C)C)C(=O)N[C@@H](CCCCN)C(=O)N[C@@H](CCCCN)C(=O)N[C@@H](CCC(N)=O)C(=O)N[C@@H](C)C(=O)N[C@@H](C)C(N)=O)[C@@H](C)O [fluorescently labelled Tiam1 peptide, fluorescein-RTLDSHASRMTQLKKQAA-amide]
